Screening data as filed in PubChem BioAssay.
Most compounds without a hit are left out; they make up all but 2.3% or so of the library.
miR-21 FLuc: raises the signal of a miR-21 reporter | HeLa miR-21 FLuc reporter, luciferase, 48 h | Potency, µM (doses to about 38.3 µM) | 340,000 tested, under 10 active | AID 2288; active = well fitted rising curve with a large enough effect; inconclusive = small, poorly fitted or top-dose-only effect; inactive = no such curve, though single readings can be large or run the other way;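 note: miR-21 action dims this reporter so a rising signal means less miR-21 action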
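HeLa cells stably expressing CMV-driven firefly luciferase with a downstream miR-21 binding sequence, endogenously expressing miR-21, were treated with titrations (up to about 40uM final) for 48 hours at 37 degree Celsius. Luciferase luminescence was read after lysis.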
Mito fusion yeast: mitochondrial division inhibition or fusion activation; 0.23% of 320,000 active; Potency, µM (highest dose often 46.1 µM), actives largely listed as activators; S. cerevisiae fusion-defective mutant growth rescue, CellTiterGlo 48 h; note: nearly all actives have a fitted effect of over 45% in size
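Luminescent cell viability in 1536-well qHTS format served as the measure of rescued growth in ts fusion-mutant S. cerevisiae cultured on non-fermentable YPEG for 48 hours at 37C.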
A549 viability: kills or reduces viability of A549 cells in Nrf2 counter-screen; A549 ARE-Fluc cells, CellTiter-Fluor viability, 18-24 h; Potency, µM (doses to about 46 µM), actives largely listed as inhibitors; 0.16% of 390,000 active
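A549 ARE_Fluc cells in 5% FBS OPTI-MEM were exposed to compounds in concentration-response for 18-24 h at 37 deg C. Viability was read by CellTiter-Fluor fluorescence (Ex 405/Em 525) after 30 min, before the luciferase read.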
Nrf2 ARE act: Nrf2 pathway activation. AID 624171. Potency, µM (highest dose often 46.1 µM), hits mostly activators. 0.31% of 410,000 active. AREc32 ARE-luciferase reporter (MCF7-derived line), luminescence, 24 h; note: nearly all actives have a fitted effect of over 65% in size
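Reporter line AREc32 (ARE-Fluc), seeded overnight in OPTI-MEM with 5% FBS; compound pin-transferred, 24 hr at 37 deg C, 5% CO2; luminescent read-out.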
Nrf2 block: blocks Nrf2 signaling | A549 ARE-Fluc reporter, luciferase luminescence, 18-24 h | 2.1% of 360,000 active | Potency, µM (highest dose often 46 µM), most hits filed as inhibitors | AID 504444; note: nearly all actives have a fitted effect of over 60% in size
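Concentration-response testing used A549 ARE_Fluc cells at 5000 cells/well. Following an 18-24 h compound incubation, viability was read by fluorescence (Ex 405/Em 525) and luciferase output by luminescence.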
Each line names hits and unclear results; the compound was inactive in the other large screens. Unless noted, calls come from the whole dose curve; as a rule, active = well fitted curve in the direction sought with a large enough effect; inconclusive = small, poorly fitted or top-dose-only effect, or another doubt; inactive = no such curve, though single readings can be large; an effect the other way counts as inactive or inconclusive.

CCOC(=O)C(Oc1ccc2c(-c3ccc(OC)cc3)cc(=O)oc2c1C)c1ccccc1 (stereo not drawn)	none
CC(=O)Nc1cccc(NC(=O)CSc2ccc(-c3ccccn3)nn2)c1	Nrf2 block inconclusive
CC(=O)c1cccc(NC(=O)CSc2ccc(-c3ccccn3)nn2)c1	Nrf2 block 21µM
CCc1ccc(NC(=O)CSc2ccc(-c3ccccn3)nn2)cc1	A549 viability inconclusive, Nrf2 block 21µM
C=CC1CN2CCC1CC2[C@@H](O)c1ccnc2ccc(OC)cc12 (stereo partly drawn)	none (no result: miR-21 FLuc, Mito fusion yeast, Nrf2 ARE act)
COc1ccc(-c2noc(N3CCN(c4cccc(C)c4C)CC3)n2)cc1OC	Nrf2 block inconclusive (no result: Mito fusion yeast)
CN(Cc1ccccc1)C(=O)CSc1nc2ccccc2n1Cc1ccccc1F	none (no result: Mito fusion yeast, Nrf2 block)
Cc1ccc(NC(=O)c2ccc(CN3CCc4ccccc4C3)cc2)cc1	Nrf2 block inconclusive
O=C(Nc1ccccc1)c1ccc(CN2CCc3ccccc3C2)cc1	none
O=C(Nc1ccc(S(=O)(=O)N2CCCCC2)cc1)c1ccc(CN2CCc3ccccc3C2)cc1	miR-21 FLuc inconclusive, Nrf2 block 0.33µM
O=C(Nc1cccnc1)c1ccc(CN2CCc3ccccc3C2)cc1	Nrf2 block 13µM
Cc1cc(C)cc(NC(=O)c2ccc(CN3CCc4ccccc4C3)cc2)c1	Nrf2 block 15µM
CC(NC(=O)C1CCN(C(=O)N2CCOc3ccc(Cl)cc32)CC1)c1ccccc1 (stereo not drawn)	none (no result: Mito fusion yeast)
COc1ccc2c(c1)Oc1ncn(CCN3CCOCC3)c(=N)c1C2c1ccc(OC)c(OC)c1 (stereo not drawn)	none (no result: miR-21 FLuc, Mito fusion yeast, Nrf2 ARE act)
Cc1cc2oc(=O)cc(-c3ccccc3)c2c(C)c1-c1ccc(O)cc1	Nrf2 block 16µM (no result: miR-21 FLuc, Mito fusion yeast)
Cc1nn(C)c(C)c1Nc1ccc(N2C(=O)C3CC=CCC3C2=O)cc1[N+](=O)[O-] (stereo not drawn)	Nrf2 block 21µM
Cc1nn(C)c(C)c1Nc1ccc(N2C(=O)C3C4C=CC(C4)C3C2=O)cc1[N+](=O)[O-] (stereo not drawn)	Mito fusion yeast inconclusive
CC1CCCCN1CCCNC(=O)c1sc2ncccc2c1-n1cccc1 (stereo not drawn)	none (no result: Mito fusion yeast, Nrf2 block)
O=C(OCC#CCSc1nnc(-c2cccc3ccccc23)o1)c1cc2ccccc2s1	none (no result: miR-21 FLuc, Mito fusion yeast, Nrf2 ARE act)
Cc1cccc(CNc2ncnc3ccc(-c4ccc5c(c4)OCCO5)cc23)c1	A549 viability inconclusive, Nrf2 block 15µM (no result: miR-21 FLuc)
Cc1cccc(CNc2ncnc3ccc(-c4cccc(C)c4)cc23)c1	none (no result: miR-21 FLuc, A549 viability, Nrf2 ARE act, Nrf2 block)
Cc1noc(C)c1-c1ccc2ncnc(NCc3ccc(-c4ccccc4)cc3)c2c1	Nrf2 block 12µM (no result: miR-21 FLuc, Mito fusion yeast, Nrf2 ARE act)
Cc1cccc(CNc2ncnc3ccc(-c4ccoc4)cc23)c1	Nrf2 block 18µM (no result: miR-21 FLuc)
COc1cccc(-c2ccc3ncnc(NCc4ccc5c(c4)OCO5)c3c2)c1	Nrf2 block 16µM (no result: miR-21 FLuc)
COc1cc(C)ccc1OCCSc1nnc(-c2ccc(C)cc2)o1	none (no result: Mito fusion yeast)
CCOC(=O)c1cc(-c2ccccc2)n(CCC(=O)Nc2nc3c(C)cccc3s2)c1C	none (no result: Mito fusion yeast, Nrf2 block)
CCOc1ccccc1NC(=O)CC(c1ccc(F)cc1)N1Cc2ccccc2C1=O (stereo not drawn)	miR-21 FLuc inconclusive (no result: Mito fusion yeast)
c1nc(NCc2ccc3c(c2)OCO3)c2cc(-c3ccc4c(c3)OCCO4)ccc2n1	Mito fusion yeast inconclusive, Nrf2 block 23µM (no result: miR-21 FLuc)
c1cncc(CNc2ncnc3ccc(-c4ccc5c(c4)OCO5)cc23)c1	none (no result: miR-21 FLuc)
CCOC(=O)CCc1cc(F)c(S(=O)(=O)N2CCN(S(=O)(=O)c3ccc4c(c3)OCCO4)CC2)cc1F	none (no result: miR-21 FLuc, Mito fusion yeast, Nrf2 ARE act)
COC(=O)C1=C(C(=O)OC)[C@@H]2N(C)c3ccccc3[C@@]23C[C@@H](C(=O)OC)N(C(=O)c2cccs2)C3=N1	none
COC(=O)C1=C(C(=O)OC)[C@@H]2N(Cc3ccccc3)c3ccccc3[C@@]23C[C@@H](C(=O)OC)N(C(=O)c2cccs2)C3=N1	miR-21 FLuc inconclusive, A549 viability inconclusive, Nrf2 block 29µM
COC(=O)C1=C(C(=O)OC)[C@@H]2N(Cc3ccccc3)c3ccccc3[C@@]23C[C@@H](C(=O)OC)N(C(=O)c2cc(C)oc2C)C3=N1	Nrf2 block 23µM (no result: miR-21 FLuc, Mito fusion yeast)
CC(C)(C)OC(=O)Cc1nnc(C(C(=O)OCc2ccccc2)c2ccccc2)o1 (stereo not drawn)	none (no result: miR-21 FLuc, Mito fusion yeast, Nrf2 ARE act)
Cc1ccc(CNC(=O)[C@H](C)N2C(=O)N3CCc4c([nH]c5ccccc45)[C@@]3(C)C2=O)cc1	none
COc1ccc(CNC(=O)[C@H](C)N2C(=O)N3CCc4c([nH]c5ccccc45)[C@@]3(C)C2=O)cc1OC	Nrf2 block 16µM
CCc1ccc(-c2cc(C)no2)cc1S(=O)(=O)NCCN1CCC(C)CC1	none
CCc1ccc(-c2cc(C)no2)cc1S(=O)(=O)NCCCN1CCN(c2ccccc2)CC1	miR-21 FLuc inconclusive, Nrf2 block 13µM
CCCN(CC1CC1)c1nc(N)c(C#N)c(CC#N)c1C#N	none (no result: Nrf2 block)
CCCN(CC1CC1)c1nc(C)nc(Nc2c(Cl)cc(Cl)cc2Cl)c1Cl	Mito fusion yeast 15µM (no result: miR-21 FLuc)
Cc1cccc(C(=O)Nc2cccc(-c3ccc4nncn4n3)c2)c1	Nrf2 block 12µM
COc1ccc(CC(=O)Nc2cccc(-c3ccc4nncn4n3)c2)cc1OC	A549 viability inconclusive, Nrf2 block 21µM
Cc1ccc(Cn2c3ccccc3c3cnn(CC(=O)N4CCCCCC4)c(=O)c32)cc1	none (no result: Mito fusion yeast)
Cc1nc2ccn(Cc3cccs3)c(=O)c2cc1C(=O)N1CCN(c2ccccc2F)CC1	none (no result: Mito fusion yeast)
Fc1ccccc1-c1ccc(-c2nc3ccc(Cl)cn3c2Nc2ccc(Cl)cc2)o1	Nrf2 block inconclusive (no result: miR-21 FLuc, Mito fusion yeast, Nrf2 ARE act)
O=S(=O)(NCC1CCN(c2ccc(S(=O)(=O)N3CCOCC3)cc2)CC1)c1ccc(F)cc1	A549 viability inconclusive, Nrf2 block 21µM
Cc1ccc(S(=O)(=O)N(C)c2ccc(C(=O)Nc3cccc(C)n3)cc2)cc1	Nrf2 block inconclusive
Cc1cccc(NC(=O)c2cccc(S(=O)(=O)N(C)c3ccccc3)c2)n1	A549 viability inconclusive, Nrf2 block 15µM (no result: miR-21 FLuc)
CCN(c1ccccc1)S(=O)(=O)c1ccc(C(=O)Nc2cccc(C)n2)cc1	Nrf2 block 18µM (no result: miR-21 FLuc)
Cc1cccc([S+](=O)([O-])NC2CCN(C#N)CC2)c1	none (no result: miR-21 FLuc, Mito fusion yeast, Nrf2 ARE act)
Cn1c2cc(B(O)O)sc2c2cnn(Cc3c(F)cccc3F)c(=O)c21	none (no result: miR-21 FLuc, A549 viability, Nrf2 ARE act, Nrf2 block)
Cc1ccc(SCc2nc(-c3ccc(C(=O)NCCc4ccc(Cl)cc4)cc3)oc2C)cc1	Nrf2 block inconclusive (no result: Mito fusion yeast)
Cc1ccc(SCc2nc(-c3ccc(C(=O)NCC(C)c4ccccc4)cc3)oc2C)cc1 (stereo not drawn)	miR-21 FLuc inconclusive, Nrf2 block 9.2µM (no result: Mito fusion yeast)
Cc1ccc(S(=O)(=O)N2CCN(c3nc(-c4ccc(F)cc4)nc4cc(Cl)ccc34)CC2)cc1	none (no result: miR-21 FLuc, Mito fusion yeast, Nrf2 ARE act)
COC(=O)C(NNc1ccccc1C)(NC(=O)c1ccc(F)cc1)C(F)(F)F (stereo not drawn)	none
